Calls of active or inactive are those of the source.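 The calls were made as follows: active = toxicity graded low, moderate or high, meaning less radioactive sulfur built into protein than in solvent-only controls; inactive = the rest.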

For this series, the system named is HeLa, 35S-Met/Cys protein incorporation toxicity, 3 h. Briefly: HeLa cytotoxicity by protein synthesis, late-stage follow-up, cytotoxicity control for PMI inhibitor project, HeLa cells (AID 1620).

With `O=P(Nc1nccs1)(c1ccccc1)c1nc2ccccc2s1` (stereo unspecified), the outcome was “active; low toxicity”.

Source of the values: PubChem BioAssay AID1620 (Sanford-Burnham Center for Chemical Genomics, 2009).
